Drawing on US20250270172A1, this text covers Ki for one molecule.

Chains of the proteins cited; added tags and fusions are not shown.
UniProt P28223, whole entry: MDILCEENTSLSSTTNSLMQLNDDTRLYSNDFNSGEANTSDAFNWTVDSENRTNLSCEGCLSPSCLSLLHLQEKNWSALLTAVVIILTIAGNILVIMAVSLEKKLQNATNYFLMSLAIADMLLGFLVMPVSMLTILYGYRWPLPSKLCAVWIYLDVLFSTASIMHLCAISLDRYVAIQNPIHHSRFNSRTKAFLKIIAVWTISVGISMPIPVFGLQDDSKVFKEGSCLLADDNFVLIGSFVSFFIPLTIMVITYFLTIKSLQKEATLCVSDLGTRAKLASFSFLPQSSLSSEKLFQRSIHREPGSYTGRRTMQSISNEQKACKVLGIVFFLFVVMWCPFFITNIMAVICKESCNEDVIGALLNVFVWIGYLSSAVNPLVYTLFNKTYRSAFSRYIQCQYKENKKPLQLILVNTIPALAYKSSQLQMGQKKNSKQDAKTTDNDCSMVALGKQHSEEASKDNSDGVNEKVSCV

For the test, the target named is 5-HT2A (Homo sapiens (Human), UniProt P28223). The test is described as follows: Radioligand binding assay, [^3H]5-HT competition, 5-HT2A. Conditions: read-out: 5-HT2A serotonin binding Ki value; [^3H]5-HT radioligand, membranes of HEK293 cells expressing recombinant 5-HT2A; Ki from IC50 by Cheng-Prusoff.

pKi: −log10 of the molar value.

In the case of `Cc1ncnc(C)c1-c1cc(NC(=O)c2cnsc2)ccc1OCCN1CCCC1`, the pKi was 8.09.
